Our source for the activity, negative = inhibition values is PubChem BioAssay AID995 (National Center for Advancing Translational Sciences (NCATS), 2007).

Molecules are shown by their SMILES. The entries are a selection whose mix differs from that of the whole data set. Inconclusive results are not listed. Activity calls are given as the source filed them. Calls follow the shape of the dose curve; as a rule, active = well fitted inhibition curve with a large enough effect; inconclusive = small, poorly fitted or top-dose-only effect; inactive = no such curve, though single readings can be large or run the other way.
% is scaled to controls: 0 for no effect and ±100 for the full control effect.

This assay is described as follows: qHTS Assay for Inhibitors of the ERK Signaling Pathway using a Homogeneous Screening Assay. Also: nearly all actives have a fitted effect of over 55% in size. Particulars: HEK293-V1b, vasopressin-stimulated pERK AlphaScreen; at 57.5 µM unless noted. For orientation: qHTS replaces the single test concentration by a dilution series.
Turning to `O=C(OC1CN2CCC1CC2)C1c2ccccc2Oc2ccccc21` (stereo not given), the activity, negative = inhibition is inactive: 10.2%.
To `CCOP(=O)(Cl)Cl` belongs inactive: 3.51%; to `NC1CCCCC1.NP(=O)(O)N(CCCl)CCCl`, inactive: -2.27% [at 11.5 µM].
For the compound `N#CC1(Nc2ccccc2)CCN(CCc2ccccc2)CC1`, the activity, negative = inhibition was inactive: 20%.
To `ClCCOP(OCCCl)OCCCl` belongs inactive: 5.85%.
To `N/C(=N\O)c1c(N)no[n+]1[O-]` belongs inactive: 6.61%; to `CCOc1ncccc1C(=O)NCC1(N2CCOCC2)CCCCC1`, inactive: -29.1%; to `O=C(O)C1(Nc2ccccc2)CCN(Cc2ccccc2)CC1`, inactive: 7.38% [at 11.5 µM].
As for `CCC(CO)(C(=O)OC1CN2CCC1CC2)c1ccccc1` (stereo not given), the activity, negative = inhibition was inactive: 9.39%.
To `Fc1ccccc1NC1CCN(Cc2ccccc2)CC1` belongs inactive: -17.2%.
